Ab-14 light chain CDR variants: yeast mating affinities

Binding partner: SARS-CoV-2 spike HR2 peptide, sequence PDVDLGDISGINAS.

The variants keep the heavy chain, the linker and the frameworks of Ab-14 (scFv order VH, a 15-residue (Gly4Ser)3 linker, VL).
VH: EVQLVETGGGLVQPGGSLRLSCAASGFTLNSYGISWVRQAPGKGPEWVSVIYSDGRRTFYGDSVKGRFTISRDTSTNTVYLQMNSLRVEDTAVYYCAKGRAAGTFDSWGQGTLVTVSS
VL: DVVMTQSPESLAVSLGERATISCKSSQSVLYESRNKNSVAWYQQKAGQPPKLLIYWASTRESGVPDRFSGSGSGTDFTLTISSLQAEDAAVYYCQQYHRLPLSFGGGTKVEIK

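The starting antibody came from a phage panning campaign against this peptide. Variants in AAYL50 differ from the parent at up to three CDR positions; double and triple changes were sampled at random. The assay is AlphaSeq: two haploid yeast populations carry antibody and antigen on their surface. The frequency of each diploid, read from paired DNA barcodes, reflects how well the two displayed proteins bind. A regression on co-assayed BCL2-family reference pairs converts the normalised counts of each replicate to an apparent Kd. There are three technical replicates.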

Substitutions are numbered in sequence along the VL above, starting at 1 (not Kabat). Scale: log10 of Kd in nM, estimated from mating counts; low values are strong binders. Where no diploid with the target was found in that replicate, the entry reads "n.d.": below detection, most likely a poor binder, though not proof of it.

changes,log10 Kd (nM) by replicate,signal with controls
Y31W L100N L102N,n.d. / n.d. / 5.70,3/9 (4.31)
S38M S58K R99C,n.d. / 2.80 / n.d.,0/9
V29N W56F R99Q,0.41 / 0.71 / 0.55,5/9 (4.91)
S38G Q95A H98S,2.96 / 3.36 / n.d.,1/9 (2.87)
S28I T59N R99W,n.d. / n.d. / n.d.,1/9 (3.60)
A57P E61I S103R,n.d. / n.d. / n.d.,0/9
S26G V29K P101E,1.17 / 1.43 / 1.43,3/9 (4.47)
E32A S33Q S38Q,2.76 / 2.64 / 3.38,2/9 (4.49)
E32K A57D R60Q,n.d. / n.d. / n.d.,1/9 (3.75)
K24Q S58Y S62W,2.39 / 2.00 / 2.67,2/9 (4.07)
K36L Y97C L102H,n.d. / 2.47 / n.d.,0/9
R99K S103C,3.21 / 3.50 / 4.25,1/9 (4.22)
S28F S33D V39T,n.d. / n.d. / n.d.,0/9
Q27A P101V L102A,2.51 / 1.78 / 1.83,2/9 (2.72)
N35Q S38G,2.05 / 2.10 / 2.04,4/9 (3.65)
K24R L30A W56H,0.26 / 0.18 / -0.08,0/9
S28L T59I L102A,n.d. / n.d. / n.d.,2/9 (4.32)
A40K Q95I R99C,n.d. / n.d. / n.d.,2/9 (5.13)
S25V Q95S L102N,3.97 / n.d. / n.d.,1/9 (4.69)
T59D,2.70 / 2.21 / 2.15,0/9
Y31A K36H A57V,1.33 / 1.55 / 1.54,4/9 (3.78)
S28V L102Y,5.11 / 3.91 / n.d.,1/9 (4.49)
V39D A57Q L102T,n.d. / n.d. / 3.95,2/9 (3.86)
S33F Q96M R99H,n.d. / n.d. / n.d.,2/9 (3.69)
N35W A57D R99L,n.d. / n.d. / n.d.,1/9 (2.84)
S28A A57V,n.d. / n.d. / n.d.,0/9
V39N A40P A57V,n.d. / n.d. / n.d.,0/9
K36E L100Q L102K,0.88 / 1.04 / 1.15,1/9 (3.83)
Q95Y P101T,n.d. / n.d. / n.d.,1/9 (4.34)
S25D S26A R99A,3.61 / 2.21 / 2.42,1/9 (4.15)
E32Q E61Q R99C,n.d. / 4.27 / n.d.,2/9 (3.45)
S25Q,1.35 / 1.64 / 1.52,2/9 (4.61)
Y31V Q96E L100I,n.d. / n.d. / n.d.,3/9 (4.61)
Q27G N35L L102H,4.41 / 4.06 / 6.51,6/9 (4.43)
S26G Y97P S103T,n.d. / n.d. / n.d.,0/9
K24D V29P R34L,n.d. / n.d. / n.d.,0/9
S26V S33Q T59C,1.31 / 1.31 / 1.19,0/9
R34V V39H R60P,n.d. / 3.63 / n.d.,4/9 (3.83)
E32M W56I R60S,4.70 / n.d. / 5.70,2/9 (3.10)
K24V K36F Y97I,n.d. / 3.64 / 3.26,1/9 (3.19)
V29Q Q96E L100T,2.11 / 1.76 / 2.06,5/9 (5.18)
S28P T59W H98Q,1.89 / 1.98 / 1.66,3/9 (4.36)
N37R W56C Q95A,4.29 / 4.86 / 4.32,2/9 (4.43)

The 3 strongest on average among those seen in every replicate, once more:

changes,log10 Kd (nM) by replicate,signal with controls
K24R L30A W56H,0.26 / 0.18 / -0.08,0/9
V29N W56F R99Q,0.41 / 0.71 / 0.55,5/9 (4.91)
K36E L100Q L102K,0.88 / 1.04 / 1.15,1/9 (3.83)

Nonspecific signal, from three strains lacking the peptide, appeared in 18% of pairings of library AAYL50, centred on 4.19 (5% of these signals below 2.99); values are not corrected for it. The control count says in how many pairings with the empty strains this scFv gave a signal, with their mean in brackets. For reference, the parent read 0.65 as the reference entry and 1.68 as a member of this library.

Values reported by Engelhart et al. 2022, doi:10.1038/s41597-022-01779-4 (FLAb copy).